The other results are listed elsewhere or left out.
T1: LIN28A (human?, UniProt Q9H9Z2 1-209)
T1 sequence: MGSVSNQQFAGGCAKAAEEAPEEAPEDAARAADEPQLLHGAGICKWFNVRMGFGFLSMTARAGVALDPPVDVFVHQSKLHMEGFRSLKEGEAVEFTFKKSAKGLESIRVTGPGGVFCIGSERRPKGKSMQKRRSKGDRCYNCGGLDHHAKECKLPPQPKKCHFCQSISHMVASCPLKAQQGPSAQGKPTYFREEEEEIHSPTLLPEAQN

T2: CIRBP (Homo sapiens, UniProt Q14011 1-172)
T2 sequence: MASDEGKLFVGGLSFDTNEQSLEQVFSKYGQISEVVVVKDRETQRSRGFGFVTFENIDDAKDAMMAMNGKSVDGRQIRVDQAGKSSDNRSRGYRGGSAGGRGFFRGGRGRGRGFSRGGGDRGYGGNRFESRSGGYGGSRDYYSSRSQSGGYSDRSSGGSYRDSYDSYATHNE

T3: DHX36 (Homo sapiens, UniProt Q9H2U1 1-1008)
T3 sequence: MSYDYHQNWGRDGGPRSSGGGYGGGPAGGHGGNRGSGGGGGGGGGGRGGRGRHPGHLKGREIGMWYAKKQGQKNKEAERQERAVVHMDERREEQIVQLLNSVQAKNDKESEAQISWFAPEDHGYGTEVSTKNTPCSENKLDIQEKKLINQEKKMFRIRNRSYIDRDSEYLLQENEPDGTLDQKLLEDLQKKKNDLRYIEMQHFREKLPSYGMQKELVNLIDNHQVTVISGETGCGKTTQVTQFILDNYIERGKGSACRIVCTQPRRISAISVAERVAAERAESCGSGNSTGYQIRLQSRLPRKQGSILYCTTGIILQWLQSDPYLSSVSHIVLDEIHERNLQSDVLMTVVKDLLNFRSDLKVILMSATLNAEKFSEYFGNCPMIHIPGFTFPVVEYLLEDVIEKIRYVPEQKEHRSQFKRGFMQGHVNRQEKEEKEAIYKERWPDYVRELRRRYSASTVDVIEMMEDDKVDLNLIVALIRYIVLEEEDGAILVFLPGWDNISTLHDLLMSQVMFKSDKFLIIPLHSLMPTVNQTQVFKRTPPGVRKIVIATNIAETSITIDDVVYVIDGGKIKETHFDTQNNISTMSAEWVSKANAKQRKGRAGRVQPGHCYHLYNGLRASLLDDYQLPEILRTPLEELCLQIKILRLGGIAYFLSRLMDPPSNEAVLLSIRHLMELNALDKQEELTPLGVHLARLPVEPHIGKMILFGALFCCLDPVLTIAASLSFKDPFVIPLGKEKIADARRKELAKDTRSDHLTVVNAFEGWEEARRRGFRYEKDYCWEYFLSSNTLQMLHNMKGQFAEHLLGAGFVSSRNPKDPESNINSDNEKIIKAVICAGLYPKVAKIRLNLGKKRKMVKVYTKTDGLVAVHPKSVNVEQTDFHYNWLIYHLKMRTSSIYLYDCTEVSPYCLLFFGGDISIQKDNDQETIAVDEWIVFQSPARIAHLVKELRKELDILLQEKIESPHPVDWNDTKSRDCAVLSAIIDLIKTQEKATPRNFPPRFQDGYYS

B1: hsa-mir-4771-2_4771-1 (structured_RNA)
RNA: GGGAAAAGGCCAACGCGCAUUACAGCUAGGUGUACGAAGUUUCAGCUGCUUCAGUUUCACUCCAAGCAGCUGAAGCUUCGUGCAC
B2: hsa-mir-3164 (structured_RNA)
RNA: GGGAAAGUACUUCACUAACGGGAAACACGGUGUACGAAGUUUCAGCGGCGCACAGCAGACCCUGCAAUCAUGCCGCUGAAGCUUCGUGCAC
B3: hsa-mir-3136 (structured_RNA)
RNA: GGGACGUUUCUUUACAGGGUACUGGAUAGGUGUACGAAGUUUCAGCGUCAUUUUUCUGUGACUGCACAUGGCGCUGAAGCUUCGUGCAC
B4: hsa-mir-146b (structured_RNA)
RNA: GGGACCUAGUACGGUGAAAUGUGGCGAUGGUGUACGAAGUUUCAGCGGCUGUGAGCUCUAGCAAUGCCCGCUGAAGCUUCGUGCAC
B5: PARIS_ID45 (structured_RNA)
RNA: GGGAAGCUGUAAUAAUCUAACGCUAGGCGGUGUACGAAGUUUCAGCGUGAGAUGGGUUGAAAGCACGUGCUGCCAAAAUAGAAUAAUGUUGGUCCUCUCCUCAUGCUGAAGCUUCGUGCAC
B6: hsa-mir-24-2 (structured_RNA)
RNA: GGGACGAUGGCUUCCCGGUCCAAUCUUGGGUGUACGAAGUUUCAGCGCUGAAACACAGUUGGUUUGUGUACACUGGCGCUGAAGCUUCGUGCAC
B7: hsa-mir-4422 (structured_RNA)
RNA: GGGAAUUCGGUGUGAACACUAGCCGCAUGGUGUACGAAGUUUCAGCCCCACCAUGUACCAGUGGGGCUGAAGCUUCGUGCAC
B8: hsa-mir-3653 (structured_RNA)
RNA: GGGAACCGCAUGGGGAAGGAUUCAAACAGGUGUACGAAGUUUCAGCCUUCCUGAGCACGCUCAUGAUGAGCAAACUGAGCCUCUAAGGCUGAAGCUUCGUGCAC
B9: PARIS_ID22 (structured_RNA)
RNA: GGGACACACGGCGUCGAGGACUAAUAUUGGUGUACGAAGUUUCAGCGGCAGUGUCCAGAGGAGGCAGCAUCUGUAGGUGUCUUCACCUGCUCUGGCUCUUGGCACAUCUGGUUGGUGACACUGUUGCUGAAGCUUCGUGCAC
B10: hsa-mir-6803 (structured_RNA)
RNA: GGGACUUGAAUUAUCGGGGCACAUCGCAGGUGUACGAAGUUUCAGCGGGCGUGGUGGACAGCGAUGCAUCCCGCUGAAGCUUCGUGCAC
B11: hsa-mir-30d (structured_RNA)
RNA: GGGAAUCGUCUGGGUUCACAGGGAGACGGGUGUACGAAGUUUCAGCGAAGCUGUAAGACACAGCUAAGCUUUGCUGAAGCUUCGUGCAC

Legend:
Experiment in all cases: FOREST: bead pull-down of RNA structure library v1, barcode microarray; U1A/LIN28A: 20 mM HEPES pH 7.5, 80 mM KCl, 20 mM NaCl, 10% glycerol, 2 mM DTT, 0.1 ug/uL BSA, 4 C; BG4/CIRBP/DHX36: 10 mM Tris-HCl pH 7.5, 100 mM KCl (or LiCl),; high values mean tight binding
U1A = U1A (Homo sapiens, UniProt P09012)
LIN28A = target: T1, LIN28A
CIRBP = target: T2, CIRBP
DHX36 = target: T3, DHX36

Binder | binding signal (U1A) | binding signal (LIN28A) | binding signal (CIRBP) | binding signal (DHX36)
B1 | 1.52 z-score | 0.112 z-score | 0.67 z-score | 0.876 z-score
B2 | 1.52 z-score | -0.385 z-score | 0.241 z-score | -0.353 z-score
B3 | 2.9 z-score | 0.269 z-score | -0.253 z-score | 0.0433 z-score
B4 | 1.5 z-score | 0.714 z-score | 0.624 z-score | 0.514 z-score
B5 | 1.5 z-score | 1.28 z-score | -0.00719 z-score | -0.21 z-score
B6 | 1.5 z-score | 0.503 z-score | -1.1 z-score | -0.385 z-score
B7 | 1.49 z-score | 0.00564 z-score | -1.38 z-score | -0.884 z-score
B8 | 1.49 z-score | -0.282 z-score | -0.308 z-score | 0.193 z-score
B9 | 1.49 z-score | 0.839 z-score | 0.154 z-score | 0.227 z-score
B10 | 1.48 z-score | 1.69 z-score | 1.95 z-score | 1.81 z-score
B11 | 1.48 z-score | 1 z-score | 0.264 z-score | 0.318 z-score

From PMC7723054
